Test results: PubChem BioAssay AID652010 (The Scripps Research Institute Molecular Screening Center, 2013)
The entries are a selection whose mix differs from that of the whole data set. Active and inactive are the calls of the source.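 Rule for the calls: active = inhibition above the mean over all tested compounds plus 3 SD (cut at about 3.6% in these data); inactive = the rest.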

Assay: DAX1 (NR0B1) inhibitors on StAR promoter, primary screen, cell-based, luminescence, SF-1 (NR5A1), full-length DAX-1 (AID 652010);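 note: 0% = DAX-1 cells with DMSO and 100% = cells lacking DAX-1 with DMSO; higher inhibition means more luminescence from relief of DAX-1 repression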
Conditions: HEK293T StAR-luciferase reporter, SF-1/DAX-1 repression relief; at 6.8 µM; hits give high values

Structure (SMILES) | inhibition
Cc1ccc(OP(=O)(Nc2ccccn2)Oc2ccc(C)cc2)cc1 | inactive: -0.57%
CC(=O)NC(SC(=S)N(CC(C)C)CC(C)C)C(Cl)(Cl)Cl (configuration not stated) | inactive: 0.44%
COC(=O)c1cc2c(s1)N=C(c1ccccc1)N(C)P2(=O)N1CCOCC1 (configuration not stated) | inactive: -0.2%
CCC(=O)N1C2C3N(C(=O)CC)C1C1N(C(=O)CC)C(C(N1C(=O)CC)N3C(=O)CC)N2C(=O)CC | inactive: -0.21%
O=C(OC1CN2CCC1CC2)c1ccccc1 (configuration not stated) | inactive: -0.57%
CN(C)C(=O)Oc1noc2ccccc12 | inactive: -0.11%
O=c1c2cc([N+](=O)[O-])ccc2[nH]c2c([N+](=O)[O-])cc([N+](=O)[O-])cc12 | inactive: -1.18%
Cc1ccccc1OP(=O)(Nc1ccccn1)Oc1ccccc1C | inactive: -0.26%
CC(NC(=O)COC(=O)C(O)(c1ccccc1)c1ccccc1)c1ccccc1 (configuration not stated) | inactive: -0.43%
CCNC(=S)/N=C(\N)N[N+](=O)[O-] | inactive: 0%
O=C(NC1CCS(=O)(=O)C1)NP(=S)(Oc1ccccc1)Oc1ccccc1 (configuration not stated) | inactive: -0.03%
Cc1ccc(NP(=O)(Oc2cccc(C)c2)Oc2cccc(C)c2)nc1 | inactive: 0.01%
c1ccc(-c2nn[nH]n2)c(-c2nn[nH]n2)c1 | inactive: -0.43%
O=P1(N(CCCl)CCCl)OCCC2CCCCN21 (configuration not stated) | inactive: -0.35%
COC(=O)C1(C)COP(=O)(NCc2ccccc2)OC1 (configuration not stated) | inactive: -0.26%
N#C/C(=C\c1ccc(N(CCBr)CCBr)cc1)C(N)=O | inactive: -0.4%
CC(=O)c1ccc(N2CC2c2ccncc2)cc1 (configuration not stated) | inactive: 0.09%
C[C@@H]1C=CCP(=O)(Oc2ccccc2)O1 (some centres not stated) | inactive: 0.68%
C[C@H]1OP(=O)(Oc2ccccc2)C[C@@H]2O[C@@H]21 (some centres not stated) | inactive: 0.16%
Cc1ccccc1CN(C)C(=O)COC(=O)C(O)(c1ccccc1)c1ccccc1 | inactive: -0.75%
CC(=O)Nc1ccc(Oc2c([N+](=O)[O-])cc([N+](=O)[O-])cc2[N+](=O)[O-])cc1 | inactive: 0.8%
CC(=O)Nc1ccc([As](=O)(O)O)c(O)c1 | inactive: 0.19%
CCOc1ccc(C2=NCC(CBr)S2)cc1 (configuration not stated) | inactive: 0.18%
O=P1(Nc2nc3ccc(Cl)cc3s2)COc2ccccc2O1 (configuration not stated) | inactive: 0.78%
CCc1cc(O)c([N+](=O)[O-])c(C)c1[N+](=O)[O-] | inactive: -0.31%
CC(C)(C)C(=O)NC(Sc1ccccc1)C(Cl)(Cl)Cl (configuration not stated) | inactive: 0.19%
CC(C)C(=O)NC(Sc1ccccc1)C(Cl)(Cl)Cl (configuration not stated) | inactive: 0.14%
